Data from publication PMC9919490, “Synthesis and Biological Evaluation of Novel Dispiro-Indolinones with Anticancer Activity” (Molecules, 2023).

Key:
Type in all cases: cell-based
Conditions in all cases: 48 h
HCT^−/− cells = test: MTT cytotoxicity assay, HCT^−/− (p53 neg)
Protocol: (§1) The synthesized compounds were tested for their ability to block the proliferation of the selected model cell lines: LNCaP (p53+), PC3 (p53-), HCT^wt (p53+), and HCT^−/− (p53-) cells. The assay was carried out using the standard MTT (3-(4,5-dimethylthiazol-2-yl)2,5-diphenyl tetrazolium bromide) assay based on the modified approach reported by Ferrari and colleagues. […] Differences in IC50 values against these cell lines were used to assess the selectivity of the compounds.
(§2) Model cell lines were purchased from the in stock collection of the N.N. Blokhin Russian Cancer Research Center (RAMS). Cells were accurately maintained in the recommended media, supplemented with 10% heat-inactivated FBS (Invitrogen) and 2 mmol/L L-glutamine (Invitrogen).
(§3) First, 4000 cells per well were plated out in 140 µL of DMEM (with 10% FBS) in 96-well plates and incubated in 5% CO2 for 24 h at 37 °C without treatment. […] The cells were treated for 48 h with […] (eight dilutions) concentrations of the substances (each in triplicate) or doxorubicin (0.3 nM–600 nM, eight dilutions) as a control substance. […] Cell survival rates were determined by the comparison of optical density with the corresponding untreated control cell culture. Dose-dependent curves and the corresponding IC50 values were calculated using “GraphPad Prism 6” software (GraphPad Software, Inc., San Diego, CA, USA).

PC3 cells = test: MTT cytotoxicity assay, PC3 (p53 neg)
Protocol: as §1, §2, §3

LNCaP cells = test: MTT cytotoxicity assay, LNCaP (p53 pos)
Protocol: as §1, §2, §3

HCT^wt cells = test: MTT cytotoxicity assay, HCT^wt (p53 pos)
Protocol: as §1, §2, §3

Measured: IC50

1-phenyl-4'-phenyl-1'-methyl-5'''-nitro-2-thiooxodispiro[imidazolidine-4,3’-pyrrolidine-2',3"-indoline]-2",5-dione [Compound 6]
> 100 µM: all assays above

1-phenyl-4'-phenyl-1'-methyl-7'''-carboxy-2-thiooxodispiro[imidazolidine-4,3’-pyrrolidine-2',3”-indoline]-2”,5-dione [Compound 7]
> 100 µM: all assays above
